Data on one molecule can be found in ChEMBL document CHEMBL1764993, “Synthesis and biological evaluation of novel irreversible serine protease inhibitors using amino acid based sulfonyl fluorides as an electrophilic trap” (Bioorg Med Chem, 2011).

The source made the active and inactive calls. The calls are words filed in the database; no cut-off is given here.

The nature of assay [1]: Inhibition of chymotrypsin assessed as p-nitroaniline release after 30 mins pre-incubated with compound for 1 hr before addition of Bz-L-Tyr-pNA as a substrate by calorimetric assay. In short, it runs like this:
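Chymotrypsin (commercial, used as received) pre-incubated 1 h with inhibitor in DMSO in sodium phosphate 0.05 M pH 7.0; aliquot then added to Bz-L-Tyr-pNA. Final: enzyme 1.0 µM, substrate 0.25 mM; DMSO controls. p-Nitroaniline release read at 405 nm for 30 min at rt to give residual activity. Triplicate or quadruplicate.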

For assay [2], the target named is T1, Papain (Carica papaya) (UniProt P00784).
T1 sequence (whole entry): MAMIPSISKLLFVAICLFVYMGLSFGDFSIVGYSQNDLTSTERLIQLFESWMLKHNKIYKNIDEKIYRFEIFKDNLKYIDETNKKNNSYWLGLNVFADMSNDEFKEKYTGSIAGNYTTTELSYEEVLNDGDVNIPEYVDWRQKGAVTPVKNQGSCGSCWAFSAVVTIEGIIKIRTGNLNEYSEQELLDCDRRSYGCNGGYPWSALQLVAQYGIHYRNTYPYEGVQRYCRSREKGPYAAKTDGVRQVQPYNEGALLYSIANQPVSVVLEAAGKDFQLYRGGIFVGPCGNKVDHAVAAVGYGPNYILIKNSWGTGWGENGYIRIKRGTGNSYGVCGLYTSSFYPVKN
As to the kind of experiment: Inhibition of papaya papain assessed as p-nitroaniline release at 2.5 uM after 1 hr pre-inhibition using Bz-L-Tyr-pNA as a substrate by calorimetric assay.

Turning to `CC(C)[C@@H](CS(=O)(=O)F)NC(=O)OCc1ccccc1`, the result in assay [1] and in assay [2] was Active.
